From US20230183309A1 (Dana-Farber Cancer Institute, Inc., priority 2019, published 2023)

Protein sequences, listed by entry. Tags and fused reporters are not part of them. Residues count along the entry.
UniProt P06873, 106-384: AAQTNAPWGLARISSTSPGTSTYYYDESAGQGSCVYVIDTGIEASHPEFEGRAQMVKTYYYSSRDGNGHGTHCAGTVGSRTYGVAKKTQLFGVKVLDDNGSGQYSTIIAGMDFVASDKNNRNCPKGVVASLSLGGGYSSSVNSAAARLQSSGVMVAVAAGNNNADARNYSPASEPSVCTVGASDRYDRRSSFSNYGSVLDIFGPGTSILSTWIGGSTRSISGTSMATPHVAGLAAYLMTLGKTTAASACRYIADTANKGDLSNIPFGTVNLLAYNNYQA

Legend:
proteinase K = biological target: T1, proteinase K (Parengyodontium album, UniProt P06873); type: in vitro ADME; conditions: 50 mM Tris-HCl, pH 7.4, peptides have the A8Aib substitution, read-out: t½ (half-life), proteinase K digestion, intact peptide by LCMS
T1 construct: purchased New England Biolabs

B6 mice = assay: Glucose tolerance test in fasted mice; type: in vivo, mouse; conditions: 10 nmol/kg IP, glucose 2 g/kg IP 30 minutes later
Procedure: To evaluate whether the relative proteolytic stability of SAH-GLP-1(16,23,30) translated into a functional benefit in vivo, glucose tolerance tests in mice were performed. Mice (n=8 per arm) were fasted overnight and administered the corresponding panel of peptides at 10 nmol/kg intraperitoneally followed by a glucose bolus (2 g/kg) 30 minutes later, and then serial serum glucose monitoring was performed over time.
In vivo efficacy testing of SAH-GLP-1 peptides. Male B6 and db/db mice (JAX 000697) at 10-12 weeks of age were housed (5 mice/cage) at a constant room temperature of 24° C. on a normal day-light cycle and provided a standard diet ad libitum. After one week of acclimatization, B6 mice (n=8 per treatment arm) were fasted for 16 hours overnight and the following morning baseline blood glucose levels were measured (Onetouch), followed by intraperitoneal (IP) injection of vehicle (saline) or the indicated peptide (10 nmol/kg). Thirty minutes later, the mice were treated with a bolus IP injection of glucose (2 g/kg, 20% aqueous solution), followed by serial blood glucose monitoring at 0, 15, 30, 60, and 120 minutes. To evaluate the comparative anti-hyperglycemic effects of peptides in db/db mice (n=8 per treatment arm), vehicle (saline) or the indicated peptide (10 nmol/kg) was injected IP and blood glucose levels monitored at 0, 15, 30, 60, and 720 minutes.

## CC[C@H](C)[C@H](NC(=O)[C@H](Cc1ccccc1)NC(=O)[C@H](CCC(=O)O)NC(=O)[C@H](CCCCN)NC(=O)[C@H](C)NC(=O)[C@H](C)NC(=O)[C@]1(C)CCCC=CCCCCCC[C@@](C)(NC(=O)[C@H](CC(=O)O)NC(=O)[C@H](CO)NC(=O)[C@@H](NC(=O)[C@H](Cc2ccccc2)NC(=O)[C@@H](NC(=O)CNC(=O)[C@H](CCC(=O)O)NC(=O)[C@H](C)NC(=O)[C@@H](N)Cc2c[nH]cn2)[C@@H](C)O)[C@@H](C)O)C(=O)N[C@@H](CO)C(=O)N[C@@H](CO)C(=O)N[C@@H](Cc2ccc(O)cc2)C(=O)N[C@@H](CC(C)C)C(=O)N[C@@H](CCC(=O)O)C(=O)NCC(=O)N1)C(=O)N[C@@H](C)C(=O)N[C@@H](Cc1c[nH]c2ccccc12)C(=O)N[C@@H](CC(C)C)C(=O)N[C@H](C(=O)N[C@@H](CCCCN)C(=O)NCC(=O)N[C@@H](CCCNC(=N)N)C(N)=O)C(C)C [SAH-GLP-1(16,23)]
Proteinase K
  half-life: 2 h
B6 mice
  control of induced hyperglycemia in glucose tolerance test: greatest benefit

## CC[C@H](C)[C@@H]1NC(=O)[C@H](Cc2ccccc2)NC(=O)[C@H](CCC(=O)O)NC(=O)[C@H](CCCCN)NC(=O)[C@H](C)NC(=O)[C@H](C)NC(=O)[C@](C)(NC(=O)CNC(=O)[C@H](CCC(=O)O)NC(=O)[C@H](CC(C)C)NC(=O)[C@H](Cc2ccc(O)cc2)NC(=O)[C@H](CO)NC(=O)[C@H](CO)NC(=O)[C@@H](NC(=O)[C@H](CC(=O)O)NC(=O)[C@H](CO)NC(=O)[C@@H](NC(=O)[C@H](Cc2ccccc2)NC(=O)[C@@H](NC(=O)CNC(=O)[C@H](CCC(=O)O)NC(=O)[C@H](C)NC(=O)[C@@H](N)Cc2c[nH]cn2)[C@@H](C)O)[C@@H](C)O)C(C)C)CCCCCCC=CCCC[C@@](C)(C(=O)N[C@@H](Cc2c[nH]c3ccccc23)C(=O)N[C@@H](CC(C)C)C(=O)N[C@H](C(=O)N[C@@H](CCCCN)C(=O)NCC(=O)N[C@@H](CCCNC(=N)N)C(N)=O)C(C)C)NC1=O [SAH-GLP-1(23,30)]
B6 mice
  control of induced hyperglycemia in glucose tolerance test: least effective
